From ChEMBL document CHEMBL1139835, “Novel quinolizidinyl derivatives as antiarrhythmic agents” (J Med Chem, 2007) come the findings set out here.

Each structure is given as a SMILES string.

Holding throughout (assay type): functional, Cavia porcellus
For assay [1], the system named is Heart. The assay is described as follows: Heart rate in spontaneously beating Langendorff-perfused guinea pig heart at 10 nM. Further details: unit not given here.
The test system of assay [2] is Heart. As to the kind of experiment: Ventricular action potential duration in spontaneously beating Langendorff-perfused guinea pig heart at 10 nM.
For assay [3], the system named is Heart. As to the kind of experiment: Heart rate in spontaneously beating Langendorff-perfused guinea pig heart at 1 nM. Further details: unit not given here.

Turning to `C=C[C@H]1CN2CC[C@H]1C[C@@H]2[C@@H](O)c1ccnc2ccc(OC)cc12` [QUINIDINE], the Activity in the assay on Heart [1] is on record as 153; in the assay on Heart [2], 170 ms; with Heart [3], 160.
